# Test results published in ChEMBL document CHEMBL1129573, “Structure-activity relationships in a series of substituted indolocarbazoles: topoisomerase I and protein kinase C inhibition and antitumoral and antimicrobial properties” (J Med Chem, 1996).
# Tests used:
# [1] = tested on: DNA topoisomerase I (Bos taurus); assay: Inhibitory activity towards Topoisomerase 1 from calf thymus.
# [2] = tested on: DNA topoisomerase II (Bos taurus); assay: Inhibitory activity towards Topoisomerase 2 from calf thymus
MIC [1],MIC [2],Compound
10 µg/mL,> 10 µg/mL,NN1C(=O)c2c(c3c4ccccc4[nH]c3c3[nH]c4ccccc4c23)C1=O
> 10 µg/mL,> 10 µg/mL,O=CNN1C(=O)c2c(c3c4cccc(Cl)c4[nH]c3c3[nH]c4c(Cl)cccc4c23)C1=O
> 10 µg/mL,> 10 µg/mL,NNC(=O)NN1C(=O)c2c(c3c4ccccc4[nH]c3c3[nH]c4ccccc4c23)C1=O
